A short description of the data set: pH of the solid, 0.5 g dissolved in 50 mL ELGA water. The settings on record: for pH of remifentanil hydrochloride: 0.5 g in 50 mL ELGA water; for pH: 0.5 g solid dissolved in 50 mL ELGA water, pH meter.

Structures are written as SMILES. Some compounds may have been tested in ways that are not shown here.

On to `CCC(=O)N(c1ccccc1)C1(C(=O)OC)CCN(CCC(=O)OC)CC1`, for which the “pH of remifentanil hydrochloride” value (listed as Sample C5, hydrochloride) turned out to be 5.98.

On to `CCC(=O)N(c1ccccc1)C1(C(=O)OC)CCN(CCC(=O)OC)CC1` [Example 6 Sample A2], for which the “pH of remifentanil hydrochloride” value was 4.22 (hydrochloride); 4.22 (listed as A2, hydrochloride); 4.22 (listed as Sample A2, hydrochloride).

In the case of `CCC(=O)N(c1ccccc1)C1(C(=O)OC)CCN(CCC(=O)OC)CC1` [Example 6 Sample A3], the “pH of remifentanil hydrochloride” value runs as follows: (hydrochloride) 4.31; (listed as A3, hydrochloride) 4.31; (listed as Sample A3, hydrochloride) 4.31.

Take `CCC(=O)N(c1ccccc1)C1(C(=O)OC)CCN(CCC(=O)OC)CC1` [Example 6 Sample A4]: under “hydrochloride”, the “pH of remifentanil hydrochloride” value amounted to 4.21.

Consider `CCC(=O)N(c1ccccc1)C1(C(=O)OC)CCN(CCC(=O)OC)CC1` [Example 6 Sample B2], for which, under “hydrochloride”, the “pH of remifentanil hydrochloride” value worked out at 5.55 and the pH is 5.55. The “pH of remifentanil hydrochloride” value (listed as Sample B2, hydrochloride) came out at 5.55.

For `CCC(=O)N(c1ccccc1)C1(C(=O)OC)CCN(CCC(=O)OC)CC1` [Example 6 Sample B3], under “hydrochloride”, the “pH of remifentanil hydrochloride” value stood at 5.51 and the pH came out at 5.51. For the same molecule, the “pH of remifentanil hydrochloride” value (listed as Sample B3, hydrochloride) came to 5.51.

`CCC(=O)N(c1ccccc1)C1(C(=O)OC)CCN(CCC(=O)OC)CC1` [Example 6 Sample B4]: the “pH of remifentanil hydrochloride” value (hydrochloride) is on record as 5.62.
